One experiment concerns the target PI3Kβ (Homo sapiens, UniProt P42338). Put plainly: In vitro test of enzyme activity (ADP-Glo lipokinase), PI3K beta. Particulars: read-out: PI3Kβ IC50, 40 μM ATP, 50 μM PIP2:3PS, 120 min. On the technique in general: In ADP-Glo the light output rises with the ADP produced.
The target of the next experiment is PI3Kα (Homo sapiens, UniProt P42336). Nature of the experiment: In vitro test of enzyme activity (ADP-Glo lipokinase), PI3K alpha. Particulars: read-out: PI3Kα IC50, 40 μM ATP, 50 μM PIP2:3PS, 120 min.

Chains of the proteins cited; added tags and fusions are not shown.
UniProt P42338, whole entry: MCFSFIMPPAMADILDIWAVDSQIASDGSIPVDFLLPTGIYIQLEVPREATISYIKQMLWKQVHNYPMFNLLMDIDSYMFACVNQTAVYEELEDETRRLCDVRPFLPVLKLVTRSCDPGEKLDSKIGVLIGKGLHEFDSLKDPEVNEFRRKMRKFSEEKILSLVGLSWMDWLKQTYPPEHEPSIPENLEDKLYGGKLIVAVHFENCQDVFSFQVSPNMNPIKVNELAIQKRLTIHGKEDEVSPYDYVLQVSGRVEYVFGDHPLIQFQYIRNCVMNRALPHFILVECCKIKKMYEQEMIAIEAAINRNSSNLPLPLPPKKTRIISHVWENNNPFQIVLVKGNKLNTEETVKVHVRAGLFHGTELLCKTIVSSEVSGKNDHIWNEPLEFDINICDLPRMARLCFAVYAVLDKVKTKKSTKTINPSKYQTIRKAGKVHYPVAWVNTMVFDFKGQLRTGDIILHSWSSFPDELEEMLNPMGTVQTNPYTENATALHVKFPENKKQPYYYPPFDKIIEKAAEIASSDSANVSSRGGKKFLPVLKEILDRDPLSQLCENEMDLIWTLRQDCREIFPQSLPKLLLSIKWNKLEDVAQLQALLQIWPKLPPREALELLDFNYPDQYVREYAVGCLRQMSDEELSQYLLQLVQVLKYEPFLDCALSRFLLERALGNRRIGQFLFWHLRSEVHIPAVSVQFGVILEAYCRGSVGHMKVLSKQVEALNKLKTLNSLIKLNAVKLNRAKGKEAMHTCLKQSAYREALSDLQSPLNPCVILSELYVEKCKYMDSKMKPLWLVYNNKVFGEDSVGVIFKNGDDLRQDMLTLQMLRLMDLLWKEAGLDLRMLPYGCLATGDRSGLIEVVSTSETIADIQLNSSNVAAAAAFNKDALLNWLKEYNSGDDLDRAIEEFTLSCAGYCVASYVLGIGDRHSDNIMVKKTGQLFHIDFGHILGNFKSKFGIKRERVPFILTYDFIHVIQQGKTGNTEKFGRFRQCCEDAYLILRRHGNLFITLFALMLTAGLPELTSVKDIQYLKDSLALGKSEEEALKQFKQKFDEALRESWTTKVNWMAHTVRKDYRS
UniProt P42336, whole entry: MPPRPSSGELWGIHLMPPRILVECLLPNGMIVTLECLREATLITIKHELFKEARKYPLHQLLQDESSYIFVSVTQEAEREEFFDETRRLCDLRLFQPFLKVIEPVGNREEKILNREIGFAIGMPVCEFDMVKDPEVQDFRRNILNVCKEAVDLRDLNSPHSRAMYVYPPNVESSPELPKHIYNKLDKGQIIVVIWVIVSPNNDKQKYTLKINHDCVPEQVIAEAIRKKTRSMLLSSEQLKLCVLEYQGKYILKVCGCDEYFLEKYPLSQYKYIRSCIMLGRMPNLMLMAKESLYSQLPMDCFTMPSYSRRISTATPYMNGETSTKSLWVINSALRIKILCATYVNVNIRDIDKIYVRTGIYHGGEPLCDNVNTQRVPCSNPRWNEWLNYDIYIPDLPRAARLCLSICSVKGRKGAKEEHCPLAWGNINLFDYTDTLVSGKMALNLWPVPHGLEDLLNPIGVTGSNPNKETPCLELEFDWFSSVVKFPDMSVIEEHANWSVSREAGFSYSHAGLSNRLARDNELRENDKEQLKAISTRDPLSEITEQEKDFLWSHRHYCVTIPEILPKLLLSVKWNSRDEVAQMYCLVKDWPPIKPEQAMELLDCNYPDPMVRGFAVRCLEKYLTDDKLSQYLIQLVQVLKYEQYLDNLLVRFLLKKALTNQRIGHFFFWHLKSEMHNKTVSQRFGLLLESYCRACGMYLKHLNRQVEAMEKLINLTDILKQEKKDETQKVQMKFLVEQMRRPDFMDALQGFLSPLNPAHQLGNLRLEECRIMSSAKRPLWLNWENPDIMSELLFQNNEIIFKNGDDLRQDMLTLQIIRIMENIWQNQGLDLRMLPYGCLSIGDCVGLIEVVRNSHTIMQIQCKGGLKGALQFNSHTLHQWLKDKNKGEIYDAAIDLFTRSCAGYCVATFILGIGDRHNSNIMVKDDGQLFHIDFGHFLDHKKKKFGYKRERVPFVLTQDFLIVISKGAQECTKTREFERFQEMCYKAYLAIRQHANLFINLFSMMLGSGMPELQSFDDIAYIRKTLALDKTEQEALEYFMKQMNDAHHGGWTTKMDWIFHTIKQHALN
UniProt P27986, whole entry partner: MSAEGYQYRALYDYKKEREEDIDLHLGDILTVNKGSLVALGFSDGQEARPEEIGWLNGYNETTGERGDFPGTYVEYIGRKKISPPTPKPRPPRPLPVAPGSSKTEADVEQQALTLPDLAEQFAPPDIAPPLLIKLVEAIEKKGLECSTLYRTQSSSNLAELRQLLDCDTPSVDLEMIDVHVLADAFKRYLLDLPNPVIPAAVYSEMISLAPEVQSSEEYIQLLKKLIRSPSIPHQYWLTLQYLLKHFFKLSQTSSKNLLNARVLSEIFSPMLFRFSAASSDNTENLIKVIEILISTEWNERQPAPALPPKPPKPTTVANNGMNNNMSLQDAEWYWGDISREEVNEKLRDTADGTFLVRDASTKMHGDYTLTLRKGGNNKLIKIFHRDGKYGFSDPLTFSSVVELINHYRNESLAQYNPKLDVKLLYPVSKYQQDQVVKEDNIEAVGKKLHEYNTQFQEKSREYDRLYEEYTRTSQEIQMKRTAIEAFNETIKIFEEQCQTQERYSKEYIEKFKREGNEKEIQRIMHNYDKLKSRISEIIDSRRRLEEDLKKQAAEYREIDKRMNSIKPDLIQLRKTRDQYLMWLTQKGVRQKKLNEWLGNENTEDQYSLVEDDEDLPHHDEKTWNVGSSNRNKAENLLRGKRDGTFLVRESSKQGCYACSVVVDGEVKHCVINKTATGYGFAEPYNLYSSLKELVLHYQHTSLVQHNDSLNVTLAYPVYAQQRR

In the case of `CNC(=O)[C@H]1C[C@@H](n2cnc3ccc(-c4cncc(NS(=O)(=O)c5ccc(F)cc5Cl)c4)cc3c2=O)C1`, the IC50 came out at 1050 nM at PI3Kβ and 9.85 nM at PI3Kα.

Turning to `CNC(=O)C(C)Cn1cnc2ccc(-c3cnc(OC)c(NS(=O)(=O)c4ccccc4C(F)(F)F)c3)cc2c1=O` (single isomer, unassigned) [WX100], the figures for the IC50 on PI3Kβ and on PI3Kα were 159 nM and 3.99 nM, respectively.

`CNC(=O)C(C)Cn1cnc2ccc(-c3cnc(OC)c(NS(=O)(=O)c4ccc(F)c(C)c4)c3)cc2c1=O` (single isomer, unassigned) [WX154]: the IC50 was 620 nM at PI3Kβ and 7.22 nM on PI3Kα.

In the case of `CNC(=O)C(C)Cn1cnc2ccc(-c3cnc(OC)c(NS(=O)(=O)c4cccc(Cl)c4Cl)c3)cc2c1=O` (single isomer, unassigned) [WX150], the values for the concentration for half-maximal inhibition (IC50) at PI3Kβ and on PI3Kα were 81 nM and 1.67 nM, respectively.

For the compound `CNC(=O)C(C)Cn1cnc2ccc(-c3cnc(OC)c(NS(=O)(=O)c4ccc(Cl)cc4F)c3)cc2c1=O` (single isomer, unassigned) [WX142], the results for the IC50 on PI3Kβ and on PI3Kα were 81.2 nM and 6.11 nM, respectively.

Regarding `CNC(=O)C(C)Cn1cnc2ccc(-c3cnc(OC)c(NS(=O)(=O)c4ccc(F)cc4Cl)c3)c(F)c2c1=O` (single isomer, unassigned) [WX124], the IC50 was 674 nM on PI3Kβ and 7.18 nM on PI3Kα.

Turning to `CNC(=O)C(C)Cn1cnc2ccc(-c3cnc(OC)c(NS(=O)(=O)c4cccc(F)c4)c3)cc2c1=O` (single isomer, unassigned) [WX162], the IC50 was found to be 201 nM on PI3Kβ and 9.18 nM on PI3Kα.

Turning to `CNC(=O)C(C)Cn1cnc2ccc(-c3cnc(OC)c(NS(=O)(=O)c4ccc(Cl)c(C)c4)c3)cc2c1=O` (single isomer, unassigned), the values for the IC50 at PI3Kβ and at PI3Kα were 312 nM and 7.04 nM, respectively.

As to `CNC(=O)C(C)Cn1cnc2ccc(-c3cnc(OC)c(NS(=O)(=O)c4cc(C)cc(F)c4)c3)cc2c1=O` (single isomer, unassigned) [WX187], the figures for the IC50 on PI3Kβ and at PI3Kα were 303 nM and 11.5 nM, respectively.

Take `CNC(=O)C(C)Cn1cnc2ccc(-c3cnc(OC)c(NS(=O)(=O)c4sccc4C)c3)cc2c1=O` (single isomer, unassigned): the IC50 was 182 nM at PI3Kβ and 6.77 nM on PI3Kα.

In the case of `CNC(=O)C(C)Cn1cnc2ccc(-c3cnc(OC)c(NS(=O)(=O)c4cc(C)ccc4F)c3)cc2c1=O` (single isomer, unassigned) [WX172], the IC50 at PI3Kβ amounted to 104 nM; at PI3Kα it was 3.13 nM.

In the case of `CNC(=O)C(C)Cn1cnc2ccc(-c3cnc(OC)c(NS(=O)(=O)c4ccc(Cl)cc4)c3)cc2c1=O` (single isomer, unassigned) [WX130], the IC50 on PI3Kβ is 215 nM; at PI3Kα, 7.11 nM.

Consider `CNC(=O)C(C)Cn1cnc2ccc(-c3cnc(OC)c(NS(=O)(=O)c4ccc(F)c(F)c4)c3)cc2c1=O` (single isomer, unassigned) [WX133], for which the IC50 was determined as 466 nM on PI3Kβ and 5.02 nM on PI3Kα.

Turning to `Cc1nc(C)c(S(=O)(=O)Nc2cc(-c3ccc4ncn(CC(C)C(N)=O)c(=O)c4c3)cnc2C)s1` (single isomer, unassigned) [WX032], the IC50 came out at 139 nM at PI3Kβ and 0.61 nM on PI3Kα.

In the case of `CNC(=O)C(C)Cn1cnc2ccc(-c3cnc(OC)c(NS(=O)(=O)c4ccc(Cl)cc4)c3)cc2c1=O` (single isomer, unassigned) [WX131], the IC50 at PI3Kβ is 312 nM; on PI3Kα, 3.76 nM.

With `Cc1ccsc1S(=O)(=O)Nc1cc(-c2ccc3ncn(CC(C)C(N)=O)c(=O)c3c2)cnc1C` (single isomer, unassigned) [WX027], the IC50 on PI3Kβ worked out at 582 nM; at PI3Kα, 9.01 nM.

Regarding `CNC(=O)C(C)Cn1cnc2ccc(-c3cnc(OC)c(NS(=O)(=O)c4ccc(Cl)cc4Cl)c3)cc2c1=O` (single isomer, unassigned) [WX152], the IC50 on PI3Kβ is 159 nM; on PI3Kα, 2.84 nM.

Regarding `CNC(=O)C(C)Cn1cnc2ccc(-c3cnc(N)c(NS(=O)(=O)c4ccc(F)cc4Cl)c3)cc2c1=O` (single isomer, unassigned), the IC50 on PI3Kβ was 5460 nM.

For the compound `CNC(=O)C(C)Cn1cnc2ccc(-c3cnc(OC)c(NS(=O)(=O)c4ccc(C)cc4F)c3)cc2c1=O` (single isomer, unassigned) [WX135], the IC50 came out at 166 nM at PI3Kβ and 2.32 nM at PI3Kα.

As to `CNC(=O)C(C)Cn1cnc2ccc(-c3cnc(OC)c(NS(=O)(=O)c4cc(F)ccc4C)c3)cc2c1=O` (single isomer, unassigned) [WX225], the IC50 turned out to be 199 nM on PI3Kβ and 5.28 nM at PI3Kα.

Consider `CNC(=O)C(C)Cn1cnc2ccc(-c3cnc(OC)c(NS(=O)(=O)c4cccc(C)c4)c3)cc2c1=O` (single isomer, unassigned) [WX140], for which the values for the IC50 at PI3Kβ and at PI3Kα were 543 nM and 18.7 nM, respectively.

Turning to `CNC(=O)C(C)Cn1cnc2ccc(-c3cnc(OC)c(NS(=O)(=O)c4c(C)noc4C)c3)cc2c1=O` (single isomer, unassigned) [WX094], the results for the IC50 on PI3Kβ and on PI3Kα were 455 nM and 4.32 nM, respectively.

In the case of `CNC(=O)[C@H]1C[C@H](n2cnc3ccc(-c4cncc(NS(=O)(=O)c5ccc(F)cc5Cl)c4)cc3c2=O)C1`, the IC50 came to 746 nM on PI3Kβ and 3.69 nM on PI3Kα.

Take `CNC(=O)C(C)Cn1cnc2ccc(-c3cnc(OC)c(NS(=O)(=O)c4ccc(F)c(C(F)(F)F)c4)c3)cc2c1=O` (single isomer, unassigned) [WX230]: the values for the IC50 on PI3Kβ and at PI3Kα were 1310 nM and 23.5 nM, respectively.

Take `CNC(=O)C(C)Cn1cnc2ccc(-c3cnc(OC)c(NS(=O)(=O)c4ccc(C(F)(F)F)cc4)c3)cc2c1=O` (single isomer, unassigned) [WX148]: the IC50 was 381 nM on PI3Kβ and 7.69 nM on PI3Kα.

Take `CNC(=O)C(C)Cn1cnc2ccc(-c3cnc(OC)c(NS(=O)(=O)c4cc(C)cc(Cl)c4)c3)cc2c1=O` (single isomer, unassigned): the IC50 at PI3Kβ came to 222 nM; at PI3Kα, 3.58 nM.

For the compound `COc1ncc(-c2ccc3ncn(CC(C)C(=O)NC4CC4)c(=O)c3c2)cc1NS(=O)(=O)c1ccc(F)cc1Cl` (single isomer, unassigned) [WX077], the IC50 at PI3Kβ stood at 305 nM; on PI3Kα it was 7.69 nM.

For `CNC(=O)C(C)Cn1cnc2ccc(-c3cnc(OC)c(NS(=O)(=O)c4ccc(Cl)cc4F)c3)cc2c1=O` (single isomer, unassigned) [WX143], the IC50 at PI3Kβ came to 128 nM; on PI3Kα it was 3.56 nM.

For the compound `CNC(=O)C(C)Cn1cnc2ccc(-c3cnc(OC)c(NS(=O)(=O)c4cccc(F)c4C)c3)cc2c1=O` (single isomer, unassigned) [WX215], the IC50 at PI3Kβ came to 168 nM; at PI3Kα it was 4.11 nM.

In the case of `CNC(=O)C(C)Cn1cnc2ccc(-c3cnc(N(C)C)c(NS(=O)(=O)c4ccc(F)cc4Cl)c3)cc2c1=O` (single isomer, unassigned), the IC50 on PI3Kβ stood at 500 nM.

With `CNC(=O)C(C)Cn1cnc2ccc(-c3cnc(OC)c(NS(=O)(=O)c4ccc(F)c(F)c4)c3)cc2c1=O` (single isomer, unassigned) [WX132], the IC50 was 261 nM at PI3Kβ and 8.26 nM on PI3Kα.

As to `CNC(=O)C(C)Cn1cnc2ccc(-c3cnc(OC)c(NS(=O)(=O)c4ccc(C)cc4Cl)c3)cc2c1=O` (single isomer, unassigned) [WX177], the IC50 stood at 170 nM on PI3Kβ and 2.03 nM on PI3Kα.

On to `CCOc1ncc(-c2ccc3ncn(CC(C)C(=O)NC)c(=O)c3c2)cc1NS(=O)(=O)c1ccc(F)cc1Cl` (single isomer, unassigned) [WX159], for which the IC50 at PI3Kβ amounted to 2100 nM.

As usually defined, the IC50 is the point on the concentration scale where inhibition reaches its midpoint.

For the origin of these results see patent US20200317660A1, “Quinazolinone Compound and Application Thereof” (LUOXIN PHARMACEUTICAL (SHANGHAI) CO., LTD., priority 2017, published 2020).
